Results published in BindingDB's records for doi:10.1016/j.bmc.2011.09.065 (2011).

By UniProt entry, the sequences of proteins in these tests, tags left out.
UniProt P05067, whole entry: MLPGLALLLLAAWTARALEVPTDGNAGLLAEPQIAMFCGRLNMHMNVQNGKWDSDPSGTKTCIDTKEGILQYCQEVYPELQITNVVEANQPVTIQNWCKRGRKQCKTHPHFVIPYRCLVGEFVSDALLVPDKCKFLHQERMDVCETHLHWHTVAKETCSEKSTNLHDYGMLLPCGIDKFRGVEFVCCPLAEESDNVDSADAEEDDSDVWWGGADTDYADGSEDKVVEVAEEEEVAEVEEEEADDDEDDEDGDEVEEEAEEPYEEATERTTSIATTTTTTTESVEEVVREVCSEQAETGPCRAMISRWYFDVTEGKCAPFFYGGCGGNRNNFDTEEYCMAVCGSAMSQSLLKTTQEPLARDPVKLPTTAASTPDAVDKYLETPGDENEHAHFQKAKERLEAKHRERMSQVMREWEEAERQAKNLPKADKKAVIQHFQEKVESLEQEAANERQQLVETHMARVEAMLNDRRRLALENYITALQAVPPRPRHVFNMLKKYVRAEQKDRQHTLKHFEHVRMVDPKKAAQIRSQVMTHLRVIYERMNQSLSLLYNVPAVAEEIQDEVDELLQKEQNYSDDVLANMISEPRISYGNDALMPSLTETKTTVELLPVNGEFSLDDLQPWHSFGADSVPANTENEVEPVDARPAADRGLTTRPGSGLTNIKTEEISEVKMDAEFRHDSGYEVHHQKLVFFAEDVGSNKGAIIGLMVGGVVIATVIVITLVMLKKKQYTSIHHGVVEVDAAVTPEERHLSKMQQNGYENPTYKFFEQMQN

Target: Amyloid-beta precursor protein (Homo sapiens, UniProt P05067)
Assay: Binding affinity to human amyloid beta (1 to 42) fibril by fluorescence intensity assay
Method in brief: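 Fibrils grown from human insulin (3 mg/mL, Tris-HCl 50 mM pH 3), E. coli-expressed human α-syn (3 mg/mL, pH 7.4) or Aβ(1–42) (0.5 mg/ml, 1% NH4OH). Fibril level taken as supernatant protein depletion. Fixed fibrils (3.5–11.35) titrated with ligand (DMSO stock diluted into 50 mM Tris-HCl pH 7.4). Plate-reader intensity read at each ligand's maximal excitation/emission wavelengths, dye blanks subtracted. Kd from single-site saturation fit.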

## Cc1ccc2c(c1)sc(-c1ccc(N(C)C)cc1)[n+]2C [Thioflavin T, 1]
  Kd: 384 nM
